Measured values reported in paper PMC6419571, “Discovery and lead optimisation of a potent, selective and orally bioavailable RARβ agonist for the potential treatment of nerve injury” (Bioorganic & Medicinal Chemistry Letters, 2019).

Protein sequences, listed by entry. Tags and fused reporters are not part of them. Residues count along the entry.
UniProt P22605, 210-444 limits assumed: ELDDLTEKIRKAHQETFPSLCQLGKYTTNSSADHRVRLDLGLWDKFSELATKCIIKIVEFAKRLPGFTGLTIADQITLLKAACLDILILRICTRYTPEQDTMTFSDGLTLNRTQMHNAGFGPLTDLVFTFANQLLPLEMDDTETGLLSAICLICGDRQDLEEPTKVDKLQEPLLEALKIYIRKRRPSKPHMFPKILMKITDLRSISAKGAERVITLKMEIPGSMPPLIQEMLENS

Target: T1, RARβ (Mus musculus, UniProt P22605)
T1 construct: expressed in transfected cells; host or cells: COS-7
Assay: RAR beta transactivation assay (gal4-RAR LBD fusion, luciferase reporter, COS-7 cells)
Format: cell-based
Method: Compounds were tested in transactivation assays at the RAR α, β and γ receptors.
Transactivation assays for RAR alpha, beta and gamma receptors:
Transcriptional transactivation assays have been performed with gal4 fusion receptor constructs, created using each of the mouse RAR ligand-binding domains, co-transfected with the pFR-luc (Stratagene) reporter construct in COS-7 cells.
Briefly, on day one, 96 well plates were seeded with 8000 cells per well then left to recover overnight. On day two, the cells were co-transfected with 100ng of reporter plasmid and 10ng of the appropriate receptor plasmid per well using lipofectamine (Invitrogen). On day three, the lipofectamine containing media was replaced by a DMEM without phenol red, followed by the addition of novel compounds dissolved in 1µl of DMSO to each well’s 100µl total volume. Finally, on day four, the cells were lysed and their luciferase substrate was provided by the BrightGlo reagent (Promega), the plates were then read on the MicroBeta TriLux (Perkin Elmer).
Data for test compounds are quoted as EC50 values. Where replicate data has been generated the data are quoted as the mean EC50 from the separate experiments.

Fold selectivity for β over α (EC50 ratio of α to β, Tables 1 and 4): 11 | Fold selectivity for β over γ (EC50 ratio of γ to β): 1.9
SMILES: COc1ccc(-c2ccc3cc(C(=O)O)ccc3c2)cc1C1(C)CCCCC1 [CD 2019, reference compound]
